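Each compound was tested at five concentrations against cells in 96-well plates for 48 hours. At the GI50, growth is halved. TGI marks complete inhibition of growth.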
Tested on: MDA-MB-468 breast
Experiment: NCI tumour cell line growth inhibition, 48 h

Question: Which results are given for `Cc1c([N+](=O)[O-])c(C)c([N+](=O)[O-])c(Nc2c([N+](=O)[O-])c(C)c([N+](=O)[O-])c(C)c2[N+](=O)[O-])c1[N+](=O)[O-]`?
Answer: GI50: 331 nM; TGI: 1900 nM

Source: PubChem BioAssay (NCI)
